Converted amounts (≈) assume the structure as drawn.
Key:
Type in all cases: cell-based
E. coli (ATCC 15597) = conditions: broth microdilution (CLSI), Mueller Hinton broth, 0.5–1 × 10^6 CFU per ml, 24 h at 37 °C, absorbance 600 nm, triplicate
Experimental: (§1) MIC values were obtained using broth microdilution against different bacteria following the protocols by Clinical and Laboratory Standards Institute. Specifically, each bacterium (100 μL of 0.5–1 × 10^6 CFU per ml) in Mueller Hinton media broth (Oxoid) was incubated in 96-well microtiter plates at 37 °C on a 3D orbital shaker. 100 μL of serial twofold peptide dilutions (from 100 to 0 μM) were used. Following peptide addition, absorbance (600 nm) was measured in a SpectraMax i3x multi-mode microplate reader (Molecular Devices). The lowest peptide concentrations inhibiting visible bacterial growth after 24 h at 37 °C was defined as MICs. All tests were performed in triplicate.

B. subtilis (ATCC 6633) = conditions: broth microdilution (CLSI), Mueller Hinton broth, 24 h at 37 °C, triplicate
Experimental: as §1

S. typhimurium (6192) = conditions: broth microdilution (CLSI), Mueller Hinton broth, 24 h at 37 °C, triplicate
Experimental: as §1

[1] = test system: P. aeruginosa (ATCC 27853); conditions: broth microdilution (CLSI), Mueller Hinton broth, 24 h at 37 °C, triplicate
Experimental: as §1

Human erythrocytes = experiment: Hemolysis assay; conditions: peptide at 250 μM; 10% (vol/vol) human erythrocytes in PBS pH 7.2, 1 h at room temperature, absorbance 550 nm, deionized water = 100%, triplicate
Experimental: For hemolysis measurements 10% (vol/vol) suspensions of human erythrocytes with peptides were used. Phosphate buffer saline (PBS, 10 mM, pH 7.2) was used to rinse human red blood cells (4x) using repeated centrifugation and re-suspension (3 min, 3000 × g). The cells were incubated for 1 h at room temperature in deionized water (fully hemolysed control), with peptide in PBS or just PBS, which was followed by centrifugation (5 min, 10000 × g). The obtained supernatant was then separated from the pellet, and absorbance (550 nm) was measured in a SpectraMax i3x multi-mode microplate reader (Molecular Devices). Absorbance obtained for the suspension that was treated with deionized water gave complete (100%) hemolysis. Table S1 summarises the results, with the values corresponding to % hemolysis for peptide at 250 μM. All tests were performed in triplicate.

## CC[C@H](C)[C@H](NC(=O)CN)C(=O)NCC(=O)N[C@@H](C)C(=O)N[C@H](C(=O)N[C@@H](CC(C)C)C(=O)N[C@@H](CCCCN)C(=O)N[C@H](C(=O)N[C@@H](CC(C)C)C(=O)N[C@H](C(=O)N[C@H](C(=O)NCC(=O)N[C@@H](CC(C)C)C(=O)N1CCC[C@H]1C(=O)N[C@@H](C)C(=O)N[C@@H](CC(C)C)C(=O)N[C@H](C(=O)N[C@@H](CO)C(=O)N[C@@H](Cc1c[nH]c2ccccc12)C(=O)N[C@H](C(=O)N[C@@H](CCCCN)C(=O)N[C@@H](CCCNC(=N)N)C(=O)N[C@@H](CCCCN)C(=O)N[C@@H](CCCNC(=N)N)C(=O)N[C@@H](CCC(N)=O)C(=O)N[C@@H](CCC(N)=O)C(N)=O)[C@@H](C)CC)[C@@H](C)CC)[C@@H](C)O)[C@@H](C)O)C(C)C)C(C)C [melittin, reference compound]
E. coli (ATCC 15597)
  Minimum inhibitory concentration: 3 µM (≈ 8.54 µg/mL)
B. subtilis (ATCC 6633)
  Minimum inhibitory concentration: 3 µM (≈ 8.54 µg/mL)
S. typhimurium (6192)
  Minimum inhibitory concentration: 3 µM (≈ 8.54 µg/mL)
[1]
  Minimum inhibitory concentration: 12 µM (≈ 34.2 µg/mL)
Human erythrocytes
  % hemolysis, at 250 μM: 100%

— article PMC8219408, “Switching Cytolytic Nanopores into Antimicrobial Fractal Ruptures by a Single Side Chain Mutation” (ACS nano, 2021)
